The target of assay [1] is T1, [^3 H]BFI binding sites (Homo sapiens, UniProt P27338).
Assay [2] has as its target T1, [^3 H]BFI binding sites. The source holds these as a separate data set.
The target in assay [3] is [^3 H]BFI binding sites (I2 binding site). As to conditions: human cortex, 8 nM [^3 H]BFI, two-site fit.

Amino acid sequences for entries named in this document (tags omitted). Residues count along the entry.
UniProt P27338, 2-520 limits assumed: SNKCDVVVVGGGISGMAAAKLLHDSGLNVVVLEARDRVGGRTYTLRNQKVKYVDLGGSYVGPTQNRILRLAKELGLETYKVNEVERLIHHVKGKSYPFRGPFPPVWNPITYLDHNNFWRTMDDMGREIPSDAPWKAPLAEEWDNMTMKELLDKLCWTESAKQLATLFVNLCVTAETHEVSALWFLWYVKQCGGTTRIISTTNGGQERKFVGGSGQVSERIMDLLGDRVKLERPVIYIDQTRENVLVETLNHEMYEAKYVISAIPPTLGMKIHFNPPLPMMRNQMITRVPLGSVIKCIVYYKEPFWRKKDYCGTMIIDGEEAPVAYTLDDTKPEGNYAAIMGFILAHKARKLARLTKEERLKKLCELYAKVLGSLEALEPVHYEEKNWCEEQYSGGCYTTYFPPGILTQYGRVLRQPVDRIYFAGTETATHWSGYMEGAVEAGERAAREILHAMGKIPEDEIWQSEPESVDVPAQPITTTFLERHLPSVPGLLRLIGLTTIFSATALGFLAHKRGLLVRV

3 compounds from US5914235A (Eli Lilly and Company, priority 1997, dated 1999) can be followed below.

“Also recorded” adds a separate entry of the source. Where two headings read alike, the source gives them in different places. Some results are limits rather than exact numbers.

In the case of `N[C@@H]1C[C@H]1c1ccccc1` (relative stereo) [TCP, Tranylcypromine], in assay [1] (free TCP present during incubation), the “TCP concentrations that inhibited [^3 H]BFI binding” value is more than 10 µM. The “TCP concentration of maximal effect on [^3 H]BFI binding” value in assay [1] (free TCP present during incubation, 8 nM [^3 H]BFI, human cortex or NRL) came to 0.3 µM. Also, the “TCP concentration of maximal potentiation of [^3 H]BFI binding” value in assay [1] (free TCP present during incubation, human brain) was 300 nM; in assay [1] (membranes preincubated with TCP, then washed to remove free TCP, human cortex) it was 1000 nM. Besides, the “Potentiation of [^3 H]BFI binding in human brain” value in assay [1] (human cortex / NRL) is recorded as “markedly potentiated; also recorded: dramatically enhanced”. Besides, in assay [1] (human cortex, 100 nM TCP), the “Decrease in KD for [^3 H]BFI binding in the presence of TCP” value is reported as 3 fold. Moreover, the “Increase in Bmax for [^3 H]BFI binding in the presence of TCP” value in assay [1] (human cortex, 100 nM TCP) is 4-7 fold. The “Potentiation of BFI binding sites in human platelets” value in assay [2] was “potentiated”.
In the case of `NNCCc1ccccc1` [phenelzine], in assay [1], the “Potentiation of [^3 H]BFI binding in human brain” value is “small potentiation” and the “Potentiation of [^3 H]BFI binding in human cortex” value is given as “slight potentiation; also recorded: slight increase”.
A word on the Ki: it is the equilibrium dissociation constant of an inhibitor or competing ligand from its target. Take `C#CCN(C)CCCOc1ccc(Cl)cc1Cl` [clorgyline]: the Ki in assay [3] (read-out: Ki for competition of [^3 H]BFI binding, two-site model, first (high-affinity) value) turned out to be 27.8 nM; in assay [3] (read-out: Ki for competition of [^3 H]BFI binding, two-site model, second (low-affinity) value) it was 3700 nM.
